For 1 compound, Ki values results are on record in US20130053400A1, “OLIGOMER-ANTIHISTAMINE CONJUGATES” (priority 2007, published 2013).

Chains of the proteins cited; added tags and fusions are not shown.
UniProt P47747, whole entry: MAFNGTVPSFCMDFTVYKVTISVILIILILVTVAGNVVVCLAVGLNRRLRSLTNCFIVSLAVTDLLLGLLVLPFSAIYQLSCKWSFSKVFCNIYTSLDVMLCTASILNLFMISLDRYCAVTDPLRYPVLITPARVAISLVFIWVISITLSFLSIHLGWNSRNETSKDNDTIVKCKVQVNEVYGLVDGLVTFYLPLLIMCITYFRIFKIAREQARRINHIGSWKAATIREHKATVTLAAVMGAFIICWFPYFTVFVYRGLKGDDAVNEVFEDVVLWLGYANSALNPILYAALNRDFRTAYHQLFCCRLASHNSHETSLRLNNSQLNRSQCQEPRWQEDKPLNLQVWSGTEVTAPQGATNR

The assay concerns the target H2 histamine receptors (Cavia porcellus, UniProt P47747). The settings on record: screening, N=1, n=3; approximation; listed as PEG-6-DPH.

`COCCOCCOCCOCCOCCOCCN(C)CCOC(c1ccccc1)c1ccccc1` [mPEG(6)-N-Diphenhydramine, mPEG6-N-diphenhydramine]: the Ki values result is recorded as “no specific binding to H2 receptors was observed”.
